The values below come from publication PMC8564858, “Flavonoid-based inhibitors of the Phi-class glutathione transferase from black-grass to combat multiple herbicide resistance” (Organic & Biomolecular Chemistry, 2021).

SMILES strings stand for the structures.

One test has as its system wildtype AmGSTF1. The test can be described thus: CDNB activity after 60 min incubation with NBD-Cl or NBD-SG (Table S3). It counts as biochemical, Alopecurus myosuroides. Conditions: 100 µM, 60 min at 20 °C, diluted 1:100, activity towards CDNB.
A further test has as its system MHR black-grass plants. Conditions: three herbicide chemistries; cited from earlier work.
In another test the test system is Cys120Val AmGSTF1. Kind of test: CDNB activity after 60 min incubation with NBD-Cl or NBD-SG (Table S3). Conditions: 100 µM, 60 min at 20 °C, diluted 1:100, activity towards CDNB.

In the case of `O=[N+]([O-])c1ccc(Cl)c2nonc12`, the entries for the “Inhibition vs. DMSO control” value in the test on wildtype AmGSTF1 and in the test with Cys120Val AmGSTF1 were 60% and 18%, respectively. The Mean specific activity in the test on wildtype AmGSTF1 (mean ± SD, n = 3) amounted to 7.8 ± 1.1 nmol s-1 mg-1 protein; in the test on Cys120Val AmGSTF1 (mean ± SD, n = 3), 21.1 ± 1.1 nmol s-1 mg-1 protein. Also, the “Reversal of herbicide resistance” value with MHR black-grass plants is reported as “reversed resistance”.
